The values below are quoted from earlier work in US7378418B2, “Azabicyclic heterocycles as cannabinoid receptor modulators” (Bristol-Myers Squibb Company, priority 2003, dated 2008).

The conditions of this series: chronic administration for two weeks (Hildebrandt et al. 2003).

Turning to `Cc1c(C(=O)NN2CCCCC2)nn(-c2ccc(Cl)cc2Cl)c1-c1ccc(I)cc1` [AM-251], the adipose tissue mass result is reported as “decreased adipose tissue mass”.
